miR-21 reporter: miR-21 reporter, rising signal. HeLa miR-21 FLuc reporter, luciferase, 48 h. Potency, µM (highest dose often 38.3 µM), for the others: at the highest dose reporter change, positive = more light. 340,000 tested, under 10 active. AID 2288; active = well fitted rising curve with a large enough effect; inconclusive = small, poorly fitted or top-dose-only effect; inactive = no such curve, though single readings can be large or run the other way;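 further: % of control where 0% means no effect; miR-21 action dims this reporter so a rising signal means less miR-21 action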
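Using DMEM plus 10% FBS, HeLa miR-21-FLuc cells are incubated with test compounds (final up to about 40uM) for 48 hours; firefly luciferase signal is then imaged following reagent-mediated lysis.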
A549 tox-1: kills or reduces viability of A549 cells in Nrf2 counter-screen. A549 ARE-Fluc cells, CellTiter-Fluor viability, 18-24 h. Potency, µM (doses to about 46 µM), for the others: at the highest dose activity change, negative = cytotoxicity, actives largely listed as inhibitors. 390,000 compounds, 0.16% hits; also: potency is read from the fitted curve at half-maximal effect; % is scaled to controls: 0 for no effect and ±100 for the full control effect
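Cytotoxicity counterscreen: CellTiter-Fluor fluorescence was measured in A549 ARE_Fluc cells after 18-24 h of compound exposure in a concentration series. The subsequent BugLite luminescent read reports ARE-luciferase activity.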
p53 reactivator: re-activators of mutant p53 | 320,000 compounds, 0.063% hits | AID 504706 | H1299 p53-A138V BP100-luciferase reporter, luminescence, 24 h | Potency, µM (doses to about 92.2 µM), without a hit: top-dose activity change, positive = activation, most hits filed as activators; also: potency is read from the fitted curve at half-maximal effect; % of control where 0% means no effect; nearly all actives have a fitted effect of over 45% in size
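H1299 (p53-null), stable ts p53-A138V + BP100-Luc; 1000 cells/well, Opti-MEM/10% FBS; cpd 4 pt, 1:5; 24 h, 37 deg C, 5% CO2; detection reagent 10 min RT; luminescence.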
ClpP mod: qHTS Assay for Activators of ClpP; ATP-dependent Clp protease proteolytic subunit (Bacillus subtilis (strain 168)), P80244; purified B. subtilis ClpP, FRET peptide cleavage, 20 min; Potency, µM (highest dose often 57.5 µM), without a hit: at the highest dose activity change, negative = active; 340,000 compounds, 1.9% hits; AID 651965, 2013; active = well fitted falling curve with a large enough effect; inconclusive = small, poorly fitted or top-dose-only effect; inactive = no such curve, though single readings can be large or run the other way; also: potency is read from the fitted curve at half-maximal effect; the source files actives as falling curves though it sought activators and does not explain the sign; nearly all actives have a fitted effect of over 65% in size
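ClpP 10 microg/mL final, pH 8 Tris/KCl buffer with BSA, glycerol, Tween-20; compound pinned in; FRET-FV substrate; RT 20 min; Ex320/Em430; ΔFRET vs ADEP 5.8 microM, DMSO, no enzyme.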
Nrf2 block: Nrf2 pathway inhibition | A549 ARE-Fluc reporter, luciferase luminescence, 18-24 h | Potency, µM (highest dose often 46 µM), for inactives: at the highest dose activity change, negative = inhibition, most hits filed as inhibitors | 360,000 compounds, 2.1% hits; also: potency is read from the fitted curve at half-maximal effect; % is scaled to controls: 0 for no effect and ±100 for the full control effect; nearly all actives have a fitted effect of over 60% in size
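Reporter: ARE-Fluc in A549. Exposure: 18-24 h, 37 °C, 5% CO2, 5% FBS OPTI-MEM. Readouts: fluorescent cytotoxicity (CellTiter-Fluor), then luminescent Nrf2 signal after BugLite.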
Nrf2 activator: activators of Nrf2 (ARE) signaling. AREc32 ARE-luciferase reporter (MCF7-derived line), luminescence, 24 h. Potency, µM (titrated, usually from 46.1 µM), without a hit: at the top dose activation, most hits filed as activators. 410,000 compounds, 0.31% hits; also: potency is read from the fitted curve at half-maximal effect; % of control where 0% means no effect; nearly all actives have a fitted effect of over 65% in size
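Quantitative high-throughput format: AREc32 reporter cells, 1000 per well, received compound by pin transfer and were incubated 24 hr at 37 deg C, 5% CO2, before Steady-Glo luminescence detection.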
FLuc counter 3: counter-screen for Nrf2 inhibitors: firefly luciferase enzyme inhibition | Potency, µM (doses to about 57.5 µM), for inactives: at the highest dose activity change, negative = inhibition, usual class: inhibitors | shares compounds with Nrf2 block | AID 720522 | purified firefly luciferase, luminescence inhibition | 1,400 compounds, 4% hits; also: potency is read from the fitted curve at half-maximal effect; % is scaled to controls: 0 for no effect and ±100 for the full control effect; nearly all actives have a fitted effect of over 65% in size
A549 tox-2: counter-screen for Nrf2 inhibitors: cytotoxicity in A549 ARE cells; shares compounds with Nrf2 block; Potency, µM (doses to about 46.1 µM), for the others: top-dose activity change, negative = cytotoxicity, hits mostly inhibitors; A549 ARE-Fluc cells, cytotoxicity counterscreen; 1,400 compounds, 2% hits;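 also: potency is read from the fitted curve at half-maximal effect; cells exposed to compounds for 18 to 24 hours; % is scaled to controls: 0 for no effect and ±100 for the full control effect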
ARE-Fluc inh: confirmation of Nrf2 inhibitors in A549 ARE reporter cells; shares compounds with Nrf2 block; A549 ARE-firefly luciferase reporter, luminescence; Potency, µM (series often up to 46.1 µM), for inactives: at the top dose activity change, negative = inhibition, usual class: inhibitors; 1,400 compounds, 74% hits; AID 720524; also: potency is read from the fitted curve at half-maximal effect; % is scaled to controls: 0 for no effect and ±100 for the full control effect; nearly all actives have a fitted effect of over 65% in size
Starred values were filed as active, the others as inactive; ? = inconclusive; · = not tested or not shown. Compounds with a hit are over-represented: about 3.7% of the library has one in this group of screens. Unless noted, calls follow the shape of the dose curve; as a rule, active = well fitted curve in the direction sought with a large enough effect; inconclusive = small, poorly fitted or top-dose-only effect, or another doubt; inactive = no such curve, though single readings can be large; an effect the other way counts as inactive or inconclusive.

Short keys – A = miR-21 reporter; B = A549 tox-1; C = p53 reactivator; D = ClpP mod; E = Nrf2 block; F = Nrf2 activator; G = FLuc counter 3; H = A549 tox-2; I = ARE-Fluc inh
O=C(Nc1c(O)c2ccccc2oc1=O)c1cccc(F)c1
  A: 4.1%; B: -0.3%; C: ·; D: -0.3%; E: ?; F: 4.5%; G: ·; H: ·; I: ·

CN(C(=O)Nc1cn(C)c(=O)c2ccccc12)c1ccccc1
  A: -0.8%; B: -2.8%; C: ·; D: 4.4%; E: -0.1%; F: -1.4%; G: ·; H: ·; I: ·

Cc1nc(CN(C)C(=O)c2cc(COc3ccc4ncccc4c3)on2)cs1
  A: 13.8%; B: -14.6%; C: -0.5%; D: -9.1%; E: 2.91µM*; F: 0.0%; G: -16.8%; H: -5.5%; I: -41.9%

CC(CCCC(C)(C)O)NC(=O)c1cc(COc2ccc3ncccc3c2)on1 (stereo not given)
  A: 17.2%; B: ?; C: -2.2%; D: ·; E: 5.17µM*; F: 2.7%; G: -10.7%; H: -4.4%; I: 6.51µM*

CCC1CCCCN1C(=O)c1cc(COc2ccc3ncccc3c2)on1 (stereo not given)
  A: 17.0%; B: ?; C: -4.7%; D: ·; E: 2.06µM*; F: 2.5%; G: 0.0%; H: -6.9%; I: ·

COCC1CCCCN1C(=O)c1cc(COc2ccc3ncccc3c2)on1 (stereo not given)
  A: 19.9%; B: -6.6%; C: 7.8%; D: -2.1%; E: ?; F: 0.2%; G: ·; H: ·; I: ·

CSCC[C@H](CO)NC(=O)[C@H]1O[C@@H](n2cnc3c(N)ncnc32)[C@H](O)[C@@H]1O
  A: ·; B: ·; C: ·; D: 0.9%; E: ·; F: 0.4%; G: ·; H: ·; I: ·

COc1cc(OC)c(NC(=O)C(Cc2ccccc2)NS(=O)(=O)c2cccc3nsnc23)cc1Cl (stereo not given)
  A: 1.9%; B: -12.6%; C: ·; D: 0.9%; E: -2.9%; F: 0.3%; G: ·; H: ·; I: ·

c1ccc2c(N=NN3CCCCC3)ccnc2c1
  A: ·; B: ·; C: ·; D: 2.3%; E: ·; F: ·; G: -24.0%; H: -23.7%; I: 5.8µM*

Cc1ccc(Cn2nc(C)c(NC(=O)CSc3nc4c(c(C(F)(F)F)n3)CCc3ccccc3-4)c2C)cc1
  A: -1.2%; B: -4.0%; C: -12.2%; D: -1.9%; E: 8.7%; F: 0.2%; G: ·; H: ·; I: ·

Two compounds drawn at random from those above, as already listed:
Short keys – A = miR-21 reporter; B = A549 tox-1; C = p53 reactivator; D = ClpP mod; E = Nrf2 block; F = Nrf2 activator; G = FLuc counter 3; H = A549 tox-2; I = ARE-Fluc inh
COCC1CCCCN1C(=O)c1cc(COc2ccc3ncccc3c2)on1 (stereo not given)
  A: 19.9%; B: -6.6%; C: 7.8%; D: -2.1%; E: ?; F: 0.2%; G: ·; H: ·; I: ·

Cc1ccc(Cn2nc(C)c(NC(=O)CSc3nc4c(c(C(F)(F)F)n3)CCc3ccccc3-4)c2C)cc1
  A: -1.2%; B: -4.0%; C: -12.2%; D: -1.9%; E: 8.7%; F: 0.2%; G: ·; H: ·; I: ·

(further entries)
Short keys – A = miR-21 reporter; B = A549 tox-1; C = p53 reactivator; D = ClpP mod; E = Nrf2 block; F = Nrf2 activator; G = FLuc counter 3; H = A549 tox-2; I = ARE-Fluc inh
Cc1nn(Cc2ccc(Cl)cc2)c(C)c1NC(=O)CSc1nc2c(c(C(F)(F)F)n1)CCc1ccccc1-2
  A: 0.8%; B: ?; C: 1.9%; D: -0.7%; E: 9.2µM*; F: -0.2%; G: -7.6%; H: ?; I: ?

Cc1cc(C)c(OC2(c3ccccc3)OC(=O)c3ccccc32)c(C)c1 (stereo not given)
  A: 11.2%; B: -18.2%; C: -2.4%; D: -0.6%; E: 9.2µM*; F: -0.2%; G: 0.8%; H: 7.6%; I: -3.4%

Cc1cccc(C)c1OC1(c2ccccc2)OC(=O)c2ccccc21 (stereo not given)
  A: 7.5%; B: ?; C: 0.5%; D: 0.9%; E: ?; F: -0.9%; G: ·; H: ·; I: ·

Cc1cc(Nc2ccccc2C(=O)O)n(-c2ccc([N+](=O)[O-])cc2)n1
  A: -6.4%; B: ?; C: -2.3%; D: -0.4%; E: 6.51µM*; F: -0.3%; G: -13.9%; H: -4.5%; I: ?

COc1ccc(-c2cc(C(=O)OC(C)C(=O)c3ccccc3)c3cccc(Cl)c3n2)cc1 (stereo not given)
  A: -5.9%; B: -0.7%; C: ·; D: -2.9%; E: 11.1%; F: 3.8%; G: ·; H: ·; I: ·

Cc1csc(SCC(=O)Nc2sc3c(c2C#N)CCC3)n1
  A: -15.5%; B: -25.9%; C: ?; D: 0.0%; E: -21.8%; F: 2.2%; G: ·; H: ·; I: ·

Cc1ccnc(SCC(=O)Nc2sc3c(c2C#N)CCCC3)n1
  A: 5.9%; B: -20.8%; C: 15.8%; D: 0.9%; E: 9.2µM*; F: 3.7%; G: -4.0%; H: -20.0%; I: ·

O=C(CCS(=O)(=O)c1ccc(Br)cc1)NC1CCCCCC1
  A: 0.8%; B: 13.5%; C: 12.5%; D: 2.1%; E: 0.1%; F: -0.8%; G: ·; H: ·; I: ·

CCN(c1ccc(OC)cc1)S(=O)(=O)c1c(C(=O)N2CCCCCC2)c(C)n(C)c1C
  A: 0.7%; B: -5.7%; C: ·; D: -0.2%; E: 3.6%; F: -0.9%; G: ·; H: ·; I: ·

Cc1cccn2c(=O)c(/C=C(\C#N)c3nc4ccccc4n3C)c(Oc3ccc(Cl)cc3)nc12
  A: -6.7%; B: -11.4%; C: ·; D: -25.1%; E: ?; F: 13.6%; G: ·; H: ·; I: ·

O=C(c1cc(COc2cccc3cnccc23)on1)N1CCCC(CCCO)C1 (stereo not given)
  A: ?; B: -28.4%; C: -10.4%; D: 3.4%; E: 3.66µM*; F: 0.1%; G: -1.6%; H: -13.1%; I: 2.31µM*

COCC1CCN(C(=O)c2cc(COc3cccc4cnccc34)on2)CC1
  A: 27.0%; B: -1.3%; C: -6.7%; D: 3.6%; E: ?; F: -0.5%; G: ·; H: ·; I: ·

COC(=O)c1[nH]c2ccc(C)cc2c1NC(=O)CN1CCN(c2ccc(F)cc2)CC1
  A: -6.2%; B: ?; C: -26.4%; D: -3.8%; E: 8.91µM*; F: 0.6%; G: -13.9%; H: -19.4%; I: 8.2µM*

Cc1ccc2[nH]c(C(=O)O)c(NC(=O)CN3CCN(c4cccc(C)c4C)CC3)c2c1
  A: -1.7%; B: -1.8%; C: 0.1%; D: -7.6%; E: ·; F: 4.2%; G: ·; H: ·; I: ·

COc1ccc(C(=O)CC(=O)c2ccccc2)cc1
  A: ·; B: 0.4%; C: ·; D: ·; E: ?; F: 0.9%; G: ·; H: ·; I: ·

COc1ccc(C(=O)C/C(=C\C(=O)c2ccc(C)cc2)c2ccccc2)cc1
  A: ?; B: ?; C: 3.6%; D: 1.7%; E: 2.59µM*; F: 0.0%; G: 0.3%; H: -27.3%; I: 11.6µM*

O=C(CSc1nnc(-c2ccccc2F)o1)NC(=O)Cc1ccccc1
  A: ·; B: -1.0%; C: ?; D: 0.9%; E: 20.6%; F: -0.1%; G: ·; H: ·; I: ·

CN(CC(=O)Nc1ccc(F)c(F)c1F)c1ncnc2sccc12
  A: -0.1%; B: -6.7%; C: 2.9%; D: ·; E: -1.2%; F: 4.4%; G: ·; H: ·; I: ·

CN(CC(=O)Nc1ccccc1Br)c1ncnc2sccc12
  A: 1.0%; B: -8.4%; C: -4.8%; D: ·; E: 9.2µM*; F: 0.3%; G: 3.7%; H: 1.4%; I: ?

COC(=O)c1ccc2c(c1)N(CC(=O)Nc1ccc(C)cc1Cl)C(=O)c1ccccc1S2
  A: -3.7%; B: -0.7%; C: ·; D: -3.9%; E: ·; F: -0.4%; G: ·; H: ·; I: ·

CC(=O)N1CCCC1c1nc2ccccc2n1Cc1ccccc1C (stereo not given)
  A: ?; B: ?; C: ·; D: -2.1%; E: 3.26µM*; F: 1.2%; G: 1.1%; H: -6.5%; I: 18.0%

CS(=O)(=O)N(Cc1ccccc1)c1ccccc1C(=O)Nc1ccccc1C(=O)NCc1ccco1
  A: -0.9%; B: 7.2%; C: -3.8%; D: -0.5%; E: ?; F: 9.6%; G: ·; H: ·; I: ·

Cc1ccc(S(=O)(=O)N(Cc2ccccc2)c2ccccc2C(=O)NCc2ccco2)cc1
  A: 3.6%; B: ?; C: 7.1%; D: -0.9%; E: 5.17µM*; F: 7.3%; G: -10.2%; H: -17.3%; I: 8.7%

High-throughput results: PubChem, National Center for Advancing Translational Sciences (NCATS)
